## Apparent affinities of Ab-14 variants for a coronavirus HR2 peptide

From the AlphaSeq antibody data of Li et al. 2023 (doi:10.1038/s41467-023-39022-2), copy in the FLAb collection.

Antigen: PDVDLGDISGINAS, a 14-residue peptide of the SARS-CoV-2 spike HR2 region.

Each scFv is VH, a 15-residue (Gly4Ser)3 linker, VL, as in the parent Ab-14, and differs from it in the CDRs of the light chain only.
VH: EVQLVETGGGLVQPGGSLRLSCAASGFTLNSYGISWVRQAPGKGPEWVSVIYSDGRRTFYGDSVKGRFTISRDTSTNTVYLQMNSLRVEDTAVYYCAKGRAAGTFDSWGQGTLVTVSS
VL: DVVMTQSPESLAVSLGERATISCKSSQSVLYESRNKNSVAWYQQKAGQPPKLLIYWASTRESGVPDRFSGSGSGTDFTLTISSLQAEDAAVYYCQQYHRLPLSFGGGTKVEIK

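The starting antibody came from a phage panning campaign against this peptide. The variants were designed computationally from a first round of random CDR variants and then made and measured. Their group label is 14L_En_HC (En: ensemble of fine-tuned language models; HC: hill climbing; a sequence that several methods proposed may carry one label only). In AlphaSeq, yeast of one mating type display the scFv and yeast of the other type display the target. Binding brings cells together so that they mate, and sequencing counts the barcode pairs among the diploids. Read counts were normalised to the haploid input and turned into Kd by a linear fit to BCL2-family pairs of known affinity, for each replicate. Each pool was mated in six replicate cultures.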

Each variant is given by its three light chain CDRs, as the data file delimits them; those of the parent are KSSQSVLYESRNKNSVA, WASTRES, QQYHRLPLS.
Scale: log10 of Kd in nM, estimated from mating counts; low values are strong binders.
Replicates are averaged; those with no signal do not enter the mean.
An entry "nd" has no value in the source: the pair was not observed among the diploids in that replicate. This suggests poor binding but is not conclusive.
A sequence measured in both rounds can read differently, since the two assays cover different ranges.

CDR-L1	CDR-L2	CDR-L3	log10 Kd (nM) by replicate	log10 Kd (nM), mean	control signals
KLSIMGLHQSIDKKSIA	ERSTREN	QQYHRLPLS	0.80 0.63 0.81 0.33 0.82 0.69	0.68	0/18
MFSQLMEYGSRFKNSVA	QASTRED	QQYHWLPLS	1.86 1.95 1.22 1.90 1.46 1.64	1.67	1/18 (3.34)
SISMSMAFLSRNKNSVA	ENSTREA	QQYDRLPLL	1.23 1.89 0.97 1.14 1.54 1.34	1.35	2/18 (3.85)
IISQVDDYLSRNTNSIA	DQTTRGS	QQYDRLPLS	0.75 0.17 0.25 0.48 0.15 0.25	0.34	1/18 (2.30)
KLSQSVRMESFNKDSVA	ENSTREA	QDYHRLPLS	1.00 nd nd 2.44 nd nd	1.72	0/18
KISFQYRYEQLSKNSIA	EVQTRLK	QQYDRLPLS	1.36 1.30 1.86 0.92 1.54 1.68	1.44	1/18 (2.47)
MISDMGLHDSRMQNSVA	NNSTREA	QQYERLPLS	nd 2.90 nd nd 1.70 2.00	2.20	0/18
TISQSTLMTGLNRNSVA	QAEERLE	QQYHRLPLS	0.48 0.54 0.43 0.67 0.02 0.41	0.42	1/18 (1.42)
KLREVQHVEMKQKNNVA	DNSTRES	QDYYRLPLS	0.59 0.65 0.28 0.56 0.71 0.62	0.57	2/18 (1.82)
KLQQVTGYESYVRNSVA	QMSTRAE	QDYHRLPLS	0.49 0.52 0.34 0.47 0.39 0.75	0.49	1/18 (1.61)
MMSQMFEGLSTSKNPVA	QVSTRME	QQYHRLPLS	1.99 1.22 0.88 1.51 1.87 2.31	1.63	1/18 (1.90)
KISGYLQKESKNKNNVA	EMVNRES	QQYDRLPLS	0.06 -0.01 0.04 0.16 0.11 0.14	0.08	0/18
TLSDLMYMESRNVNSVA	DLVKRES	QQYHRLPLS	0.15 0.00 0.05 -0.22 -0.07 0.12	0.01	1/18 (2.62)
KLYFNVGTMSINKQSIA	DMERRED	QQYHRLPLS	0.22 0.08 -0.11 -0.38 -0.33 0.04	-0.08	2/18 (2.57)
KLSIMYQHTSHNKNNIA	ERSTREE	QQYHHLPLS	0.54 0.25 0.28 -0.01 0.56 0.71	0.39	1/18 (2.25)
MVGQGLMGESRAKNSIA	QASLRED	QQYHRLPLI	0.68 0.46 0.45 0.58 0.31 0.79	0.55	0/18
KISTLTLYESVNKNNVA	EMSTRPS	QSYHRLPLS	1.23 0.79 1.05 0.73 1.97 1.06	1.14	1/18 (2.80)
KVQQSVNVGSKNKNSLA	EMSTREF	QDYHRLPLS	0.90 0.75 0.91 0.58 1.05 1.19	0.90	1/18 (2.32)
TLTQVTMVESYVKNSVA	QASTRLE	QDYHRLPLS	0.86 0.75 0.62 0.64 0.70 0.91	0.75	1/18 (3.25)
KIGDMVHTLSRNKNSIA	DMRTRES	QQYYRLPLS	1.66 1.58 1.61 2.08 2.21 1.93	1.84	1/18 (3.79)
NVGQLMDGQTRNRNNVA	HQSTRED	QHYHRLPLS	2.60 0.52 0.36 0.89 0.45 0.91	0.95	0/18
TISQMFLGESRHRNSVA	QASTRES	QSYDRLPLS	0.73 0.35 0.20 0.43 0.25 0.29	0.37	1/18 (2.36)
KLSMSMRFLTEEKNSIA	ELVTRMS	QQYHRLPLS	nd nd nd nd nd nd	nd	0/18
MMSMGYLGGMRAKNNVA	QESTRES	QQYHRLPLI	1.41 1.21 1.39 1.20 1.80 1.32	1.39	0/18
KISYMGEWFSTNHSAIA	QASTREQ	QQYHRLPLS	0.63 0.70 0.57 0.61 0.54 0.72	0.63	4/18 (3.75)
KISFQYRYEQLSKNNIA	EAQTRLK	QQYHRLPLS	0.95 0.72 0.87 0.82 0.85 0.95	0.86	0/18
NVSQMVLTGSTLRNSVA	HASTRFN	QQYHRLPLI	1.34 1.42 1.66 1.28 2.08 1.69	1.58	0/18
KISQSINFMSGNKNAIA	QMEMREE	QQYHRLPLS	1.80 0.66 1.03 0.22 0.32 0.63	0.78	0/18
HISMMVGTKGYNKNSVA	NQETRED	QQYHRLPLS	0.78 0.53 0.54 0.12 0.71 0.33	0.50	3/18 (2.74)
ILSDSVLTEMRNKNSVA	DNSTRES	QQYDRLPLS	nd 2.23 1.87 3.92 2.51 2.83	2.67	4/18 (3.30)
MISQLFMYGSRQYNSIA	QAETREK	QQYDRLPLE	1.85 1.61 1.00 1.46 1.39 1.88	1.53	4/18 (2.03)
KILQEVTGHSRNKNSVA	HNSTRED	QQYDRLPLS	nd nd 2.88 nd nd nd	2.88	0/18
QMLMATMQGTYNRNSVA	HAETRED	QSYHRLPLS	nd 1.26 1.89 nd 2.09 nd	1.75	0/18
TLSHSTDLESVHKNSIA	DLMTRES	QQYERLPLS	0.94 0.50 0.69 0.25 0.87 1.01	0.71	0/18
TISQSMQQESHNKNSVA	DLSVRGS	QQYHRLPLS	0.49 0.22 0.15 -0.07 0.07 0.18	0.17	1/18 (1.79)
KFSQMVLTGAYVSNSVA	QMSTRVN	QQYHRLPLM	0.46 0.82 0.81 0.78 0.82 0.68	0.73	0/18
KLRQVTEYESFNKNSVA	QTETREN	QDYDRLPLS	nd nd nd nd nd nd	nd	0/18
TLGQSSLMESRNKNNVA	QMSTREK	QQYDRLPLS	0.20 0.35 0.10 -0.02 0.13 0.10	0.14	4/18 (2.53)
NISQSVGMTSRNKNSVA	ENSTRED	QQYDRLPLS	0.10 nd nd nd nd nd	0.10	0/18
KITQMVNYESTHINAVA	QMSTREE	QQYFRLPLS	nd -0.01 nd -0.02 0.47 nd	0.15	0/18
NVGQQMDGESRNKNSVA	HQSTRED	QHYHRLPLS	0.61 0.58 0.79 0.10 0.33 0.75	0.53	0/18
TISQSWFVESKNKNNVA	EMSTREN	QDYDRLPLS	nd 1.07 0.93 1.56 1.13 1.31	1.20	0/18
KISMYLNKEKKAGNNVA	EMVNREA	QQYDRLPLS	0.49 0.60 0.31 0.29 0.77 0.39	0.47	2/18 (2.67)
TISNMFMMENQFKNSVA	QASTREN	QCYDRLPLS	2.54 1.68 1.91 1.76 1.93 1.80	1.94	1/18 (2.66)
KLSISGLHQSIDKKSIA	ERSTREN	QQYHRLPLS	0.74 0.57 0.59 0.60 0.59 0.67	0.63	2/18 (2.74)
HISQMWMLESKHKNNVA	EESTRED	QSYFRLPLS	0.47 0.09 3.43 0.13 0.89 0.30	0.89	1/18 (2.57)
HISQSVGMTAFNKNSVA	ENSTREN	QQYDRLPLS	nd 2.26 nd 5.14 nd nd	3.70	2/18 (2.69)

The parent sequence was in this pool as ten entries: three were never detected, three once, and four in most replicates, with averages from 0.34 to 2.37.
Nonspecific signal, from three strains lacking the peptide, appeared in 4% of pairings of all light chain designs, centred on 2.64 (5% of these signals below 1.59); values are not corrected for it. For each scFv, signals with the empty controls are counted beside the result, with their mean in brackets.
The authors' rule: three or more of the six replicates give a measured affinity, fewer mean a poor binder.